# In BindingDB's records for doi:10.1021/jm0506625 (Washington University, 2005):
# Molecular target: T1, Caspase-6 (Homo sapiens, UniProt P55212)
# T1 sequence (P55212 whole entry): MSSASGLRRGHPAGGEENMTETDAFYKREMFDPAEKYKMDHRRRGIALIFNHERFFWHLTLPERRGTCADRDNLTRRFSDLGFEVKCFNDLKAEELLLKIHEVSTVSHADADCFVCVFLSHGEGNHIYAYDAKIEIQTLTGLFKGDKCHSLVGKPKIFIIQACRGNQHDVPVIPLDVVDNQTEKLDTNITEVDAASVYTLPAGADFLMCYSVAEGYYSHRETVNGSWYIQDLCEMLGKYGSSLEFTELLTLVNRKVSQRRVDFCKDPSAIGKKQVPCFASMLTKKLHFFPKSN
# Assay: Caspase Inhibition Assay
# Method: The substrate peptides terminating in AMC are processed by caspases with or without inhibitors. The amount of AMC released was determined by using a Victor microplate fluorometer (Perkin-Elmer Life Sciences, Boston, MA) at excitation and emission wavelengths of 355 and 460 nm. Compounds were tested in duplicate, and IC50 curves were calculated for all inhibitors. Final IC50s were the average of three independent experiments.
compound,measurement,value
CCC(C)[C@H](NC(=O)[C@H](CCC(=O)O)NC(=O)[C@@H](NC(C)=O)C(C)C)C(=O)N[C@H](C=O)CC(=O)O (stereo partly drawn) [(4S)-4-{[(1S)-1-{[(2S)-1-carboxy-3-oxopropan-2-yl]carbamoyl}-2-methylbutyl]carbamoyl}-4-[(2S)-2-acetamido-3-methylbutanamido]butanoic acid],pIC50,7.22

# pIC50: −log10 of the molar value.
